Reference: paper PMC5173035, “Biochemical and structural characterization of a DNA N^6-adenine methyltransferase from Helicobacter pylori” (Oncotarget, 2016)

How the values were obtained:
[1] = target: T1, M1.HpyAVI (Helicobacter pylori, UniProt O24891); experiment: microscale thermophoresis, fluorescently labelled protein, unlabelled AdoMet; type: binding
T1 construct: gene HP_0050; full-length, C-terminal His-tag (pET22b), expressed in E. coli with chaperone plasmid PG-KJE8; dimer of 54 kDa; beta-class MTase
T1 sequence (O24891 1-232): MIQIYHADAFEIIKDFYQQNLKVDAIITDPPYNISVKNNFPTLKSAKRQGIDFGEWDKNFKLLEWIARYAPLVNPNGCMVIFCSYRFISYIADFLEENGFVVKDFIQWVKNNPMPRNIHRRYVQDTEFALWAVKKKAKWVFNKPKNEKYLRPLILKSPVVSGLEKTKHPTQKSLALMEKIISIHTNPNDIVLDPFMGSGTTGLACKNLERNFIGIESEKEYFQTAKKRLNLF

[2] = target: T2, M1.HpyAVI (Helicobacter pylori, UniProt O24891, S198A); experiment: biochemical
T2 construct: gene HP_0050

[3] = target: T3, M1.HpyAVI (Helicobacter pylori, UniProt O24891, T200A); experiment: biochemical
T3 construct: gene HP_0050

[4] = target: T4, M1.HpyAVI (Helicobacter pylori, UniProt O24891, H168A); experiment: biochemical
T4 construct: gene HP_0050

[5] = target: T5, M1.HpyAVI (Helicobacter pylori, UniProt O24891, D8A); experiment: biochemical
T5 construct: gene HP_0050

[6] = target: T6, M1.HpyAVI (Helicobacter pylori, UniProt O24891, G199A); experiment: biochemical
T6 construct: gene HP_0050

[7] = target: T7, M1.HpyAVI (Helicobacter pylori, UniProt O24891, M196A); experiment: biochemical
T7 construct: gene HP_0050

C[S+](CC[C@H](N)C(=O)O)C[C@H]1O[C@@H](n2cnc3c(N)ncnc32)[C@H](O)[C@@H]1O (stereo partly shown) [AdoMet] gave a Kd [1] of 41 ± 6 µM, a Kd [2] of 242 ± 32 µM and a Kd [3] of 252 ± 28 µM. The Kd [4] was 471 ± 51 µM, the Kd [5] was 212 ± 11 µM and the Kd [6] was 38 ± 6 µM. For the same compound, the Kd [7] was 46 ± 11 µM.
